From US20040162345A1, “Compounds with NEP/MP-inhibitory activity and uses thereof” (Solvay Pharmaceuticals GmbH, priority 2001, published 2004)

Molecular target: T1, Recombinant human COOH-terminal His6-tagged endothelin converting enzyme-1 (Homo sapiens, UniProt P42892)
T1 construct: His6 (C); purchased Innogenetics, Ghent, Belgium; host or cells: Sf9 cells
T1 sequence (P42892 1-770): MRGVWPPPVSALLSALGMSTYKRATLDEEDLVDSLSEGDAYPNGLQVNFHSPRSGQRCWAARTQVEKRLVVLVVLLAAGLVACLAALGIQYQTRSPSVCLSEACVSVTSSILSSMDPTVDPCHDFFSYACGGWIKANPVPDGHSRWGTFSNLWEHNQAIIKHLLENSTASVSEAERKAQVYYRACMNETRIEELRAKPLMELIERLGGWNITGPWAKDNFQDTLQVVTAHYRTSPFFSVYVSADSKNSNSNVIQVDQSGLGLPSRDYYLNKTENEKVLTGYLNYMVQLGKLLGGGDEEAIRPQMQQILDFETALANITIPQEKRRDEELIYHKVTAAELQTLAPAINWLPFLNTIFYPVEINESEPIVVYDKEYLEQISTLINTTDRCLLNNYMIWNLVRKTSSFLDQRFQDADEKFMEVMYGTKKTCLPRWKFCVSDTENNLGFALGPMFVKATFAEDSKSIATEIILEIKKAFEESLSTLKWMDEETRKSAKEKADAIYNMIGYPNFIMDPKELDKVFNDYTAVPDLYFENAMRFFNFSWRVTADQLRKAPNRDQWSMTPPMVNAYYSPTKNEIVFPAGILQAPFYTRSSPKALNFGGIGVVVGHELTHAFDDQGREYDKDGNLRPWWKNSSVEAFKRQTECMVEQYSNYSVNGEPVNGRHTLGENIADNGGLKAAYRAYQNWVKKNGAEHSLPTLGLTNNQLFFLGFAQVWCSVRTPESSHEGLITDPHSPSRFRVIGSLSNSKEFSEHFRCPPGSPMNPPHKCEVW
Experiment: ECE enzyme inhibition assay (17 amino acid truncated big endothelin-1, HPLC)
Assay type: biochemical

IC50: 11.7 nM
SMILES: Cc1nn(-c2ccccc2)c(NC(=O)NS(=O)(=O)c2ccc(Cl)cc2)c1C#N.[Na] [monosodium salt]
